Source: PMC8654833 (Scientific Reports, 2021)

Sequences of proteins named here, by UniProt entry; tags and fusion partners are left off.
UniProt P28222, whole entry, species assumed: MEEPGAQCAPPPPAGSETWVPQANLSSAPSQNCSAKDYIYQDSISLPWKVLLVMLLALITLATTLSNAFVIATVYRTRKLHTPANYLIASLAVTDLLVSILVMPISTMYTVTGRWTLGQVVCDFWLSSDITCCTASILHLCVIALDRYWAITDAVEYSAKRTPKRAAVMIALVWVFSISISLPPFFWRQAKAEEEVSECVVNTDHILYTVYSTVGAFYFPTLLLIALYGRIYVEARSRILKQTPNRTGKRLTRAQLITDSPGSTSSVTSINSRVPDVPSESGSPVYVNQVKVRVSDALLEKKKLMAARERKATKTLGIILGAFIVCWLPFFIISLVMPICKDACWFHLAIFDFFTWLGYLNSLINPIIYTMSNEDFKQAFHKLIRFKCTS

Biological target: T1, 5-HT1B (Homo sapiens, UniProt P28222)
T1 construct: Euroscreen FAST (contract assay)
Assay: Radioligand binding competition dose-response (Euroscreen), 5-HT1B
Settings: dose-response study, maximal concentration 10 µM, [3H]5-CT

NCCc1c[nH]c2ccc(O)cc12 [5-HT]
%Binding inhibition at 10 µM: 103.54%
